Source: PMC4019986, “Structural and biochemical characterization of the KLHL3–WNK kinase interaction important in blood pressure regulation” (Biochemical Journal, 2014)

Amino acid sequences for entries named in this document (tags omitted).
UniProt Q14145, whole entry: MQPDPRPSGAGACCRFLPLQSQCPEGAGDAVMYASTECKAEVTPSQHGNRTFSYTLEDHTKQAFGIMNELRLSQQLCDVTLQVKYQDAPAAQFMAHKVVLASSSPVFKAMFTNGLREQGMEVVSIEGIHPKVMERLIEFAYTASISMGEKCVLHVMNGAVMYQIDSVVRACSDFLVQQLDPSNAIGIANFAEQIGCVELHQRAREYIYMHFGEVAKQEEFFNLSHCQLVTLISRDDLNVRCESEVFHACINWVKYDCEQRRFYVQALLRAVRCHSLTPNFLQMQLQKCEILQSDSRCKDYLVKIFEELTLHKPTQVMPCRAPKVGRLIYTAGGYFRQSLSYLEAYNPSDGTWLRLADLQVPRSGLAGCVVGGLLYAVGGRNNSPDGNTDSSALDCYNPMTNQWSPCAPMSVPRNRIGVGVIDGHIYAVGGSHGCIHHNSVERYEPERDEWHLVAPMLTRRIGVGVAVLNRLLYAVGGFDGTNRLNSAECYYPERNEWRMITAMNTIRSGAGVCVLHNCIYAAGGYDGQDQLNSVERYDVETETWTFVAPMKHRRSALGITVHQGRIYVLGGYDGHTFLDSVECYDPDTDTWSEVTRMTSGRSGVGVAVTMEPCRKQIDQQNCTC

Target: T1, KEAP1 full-length protein (residues 1–624) (UniProt Q14145 1-624)
T1 construct: KEAP1, NM_203500.1, amplified from EST IMAGE 3163902, residues 1-624; NM_203500.1 is a human transcript as far as I recall; also called Kelch-like enoyl-CoA hydratase-associated protein 1; source: Sf21 cells, purified (ampicillin–Sepharose, TEV protease release, size-exclusion chromatography); not shown: DAC, N-terminal, cleaved
Test: fluorescence polarisation; Kelch protein titrated against 10 nM Lumio-Green-labelled peptide; 25°C; 50 mM Tris/HCl pH 7.5, 150 mM NaCl, 2 mM DTT; one-site specific binding with Hill slope; duplicates, at least 12 points per curve
Conditions: both partners purified

B1: NRF2 degron peptide (NRF2 WT 74–84) (peptide)
peptide: LQLDEETGEFL
modifications: Lumio Green fluorophore on the N-terminal linker …
notes: nuclear factor-erythroid 2-related factor 2 (NRF2), degron motif, residues 74-84; also called NRF2 degron motif; source: synthetic peptide (GL Biochem)
Kd: 440 nM
